These results are taken from patent publication US6214581A, “Nucleic acids encoding a functional human purinoreceptor P2X3 and P2X6, and methods of production and use thereof” (Abbott Laboratories, priority 1998, dated 2001).

A word on the IC50: it is the concentration that gives 50% inhibition.

The target of this assay is T1, human P2X3 receptors (Homo sapiens, UniProt P56373).
T1 construct: expressed in transfected cells; host or cells: Xenopus laevis oocytes (nuclear injection of the P2X3 insert in pCDNA3.1)
T1 sequence (P56373 1-397): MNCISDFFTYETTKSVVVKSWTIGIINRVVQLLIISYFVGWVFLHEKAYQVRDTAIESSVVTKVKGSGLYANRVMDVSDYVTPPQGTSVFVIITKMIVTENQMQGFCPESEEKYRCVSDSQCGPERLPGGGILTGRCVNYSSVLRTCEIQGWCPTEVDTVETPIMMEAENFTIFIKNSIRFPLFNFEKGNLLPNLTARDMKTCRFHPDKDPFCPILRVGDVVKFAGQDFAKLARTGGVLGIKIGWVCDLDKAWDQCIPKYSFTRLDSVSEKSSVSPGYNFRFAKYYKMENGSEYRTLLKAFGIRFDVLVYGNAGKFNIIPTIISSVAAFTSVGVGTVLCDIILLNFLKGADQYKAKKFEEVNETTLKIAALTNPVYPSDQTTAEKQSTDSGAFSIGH
The experiment in a line: Two-electrode voltage-clamp of Xenopus oocytes expressing recombinant human P2X3 receptor. As to conditions: block of ATP (0.3 μM)-induced currents. The class given is cell-based. As to the method:
Responses were measured at a holding potential of -60 mV in modified Barth's solution containing 10 mM BaCl2 and lacking CaCl2 and MgCl2 (final pH 7.4). However, in some experiments, the cell potential was intentionally varied in order to determine the response current-voltage relationship. Agonist was applied briefly using a computer-controlled solenoid valve and a push/pull applicator positioned to within 200-400 μm from the oocyte. Responses were recorded by computer in synchrony with agonist application. Antagonists were included with agonist in the push/pull applicator and were applied to the bath by superfusion for at least 3 minutes before application of agonist. Responses were quantified by measuring the peak amplitude.
The clone was grown up and prepared in large scale using the QIAgen maxiprep DNA preparation system according to the manufacturer's instructions. T he DNA was ethanol precipitated and resuspended in TE buffer. […]
For functional anaysis of human P2X3 receptors, 10 ng of human P2X3 DNA prepared as described above were injected into the nucleus of Xenopus oocytes. […] The response to 10 μM ATP was then recorded.

With `Cc1nc(N=Nc2ccc(S(=O)(=O)O)cc2S(=O)(=O)O)c(COP(=O)(O)O)c(C=O)c1O` [PPADS, pyridoxal-phosphate-6-azophenyl-2',4'-disulfonic acid], the IC50 is 1000 nM.
